## Curated experimental data: vapor pressure values

Data: OPERA 2.9 data sets, kmansouri/OPERA on GitHub.

Vapor pressures (log10 mmHg) refer to near room temperature, 15 to 30 °C; higher is more volatile.
The databases behind each value are named after "via".

* Cc1ccc(C(=O)O)c(O)c1 [m-Cresotic acid]: log vapor pressure -4.289 (log10 mmHg) (via eChemPortal)
* CC(C)C(C)(C)C(C)(C)C(C)(C)S [tert-Dodecanethiol]: log vapor pressure -0.824 (log10 mmHg) (via eChemPortal)
* Clc1ccc(-c2cccc(Cl)c2Cl)cc1 [2,3,4'-Trichlorobiphenyl]: log vapor pressure -3.745 (log10 mmHg) (via OCHEM)
* COCCC(=O)OC [Methyl 3-methoxypropionate]: log vapor pressure 0.971 (log10 mmHg) (via eChemPortal)
* C[Si](C)(Cl)CCl [Silane, chloro(chloromethyl)dimethyl-]: log vapor pressure 1.509 (log10 mmHg) (via eChemPortal)
* CN1CCOCC1 [4-Methylmorpholine]: log vapor pressure 1.235 (log10 mmHg) (via eChemPortal)
* O=CC(=O)[O-].[Na+] [Sodium oxoacetate]: log vapor pressure -8.678 (log10 mmHg) (via eChemPortal)
* CCO[Si](CCCN=C=O)(OCC)OCC [(3-Isocyanatopropyl)triethoxysilane]: log vapor pressure -1.523 (log10 mmHg) (via eChemPortal)
* Nc1ccc(S(=O)(=O)Nc2ccccn2)cc1 [Sulfapyridine]: log vapor pressure -4.203 (log10 mmHg) (via OCHEM)
* NCCCCCC(=O)O [Aminocaproic acid]: log vapor pressure -13.14 (log10 mmHg) (via eChemPortal)
* NC(=O)c1ccccc1O [Salicylamide]: log vapor pressure -4.824 (log10 mmHg) (via eChemPortal)
* CCCCCCCCCCCC[N+](C)(C)C.[Br-] [Dodecyltrimethylammonium bromide]: log vapor pressure -5.736 (log10 mmHg) (via eChemPortal)
* Nc1cc([N+](=O)[O-])ccc1O [2-Amino-4-nitrophenol]: log vapor pressure -4.453 (log10 mmHg) (via eChemPortal)
* NCCCN [1,3-Diaminopropane]: log vapor pressure 0.591 (log10 mmHg) (via eChemPortal)
* C=C(C#N)C(=O)OCCOC [2-Propenoic acid, 2-cyano-, 2-methoxyethyl ester]: log vapor pressure 1.519 (log10 mmHg) (via eChemPortal)
* CC=CCCC: log vapor pressure 2.176 (log10 mmHg) (via OCHEM)
* C=CCOC(=O)CC(C)C [Allyl isovalerate]: log vapor pressure 1.114 (log10 mmHg) (via PubChem)
* CCCCCCCC[Si](C)(C)Cl [Silane, chlorodimethyloctyl-]: log vapor pressure -0.824 (log10 mmHg) (via eChemPortal)
* C/C=C/C=C/C(=O)O [2E,4E-Hexadienoic acid]: log vapor pressure -3.87 (log10 mmHg) (via eChemPortal)
* CCN(CC)c1ccc(C(=O)c2ccc(N(CC)CC)cc2)cc1 [Methanone, bis[4-(diethylamino)phenyl]-]: log vapor pressure -9.639 (log10 mmHg) (via eChemPortal)
* FC(F)(I)C(F)(F)C(F)(F)C(F)(F)C(F)(F)C(F)(F)I [1,6-Diiodoperfluorohexane]: log vapor pressure 0.377 (log10 mmHg) (via eChemPortal)
* C=CCOC(=O)CCCCC [Allyl hexanoate]: log vapor pressure 0.305 (log10 mmHg) (via eChemPortal)
* COC(C)CCOC(C)=O (configuration not stated) [3-Methoxybutyl acetate]: log vapor pressure -0.477 (log10 mmHg) (via eChemPortal)
* Clc1cc(Cl)cc(-c2c(Cl)c(Cl)c(Cl)c(Cl)c2Cl)c1 [2,3,3',4,5,5',6-Heptachlorobiphenyl]: log vapor pressure -5.666 (log10 mmHg) (via OCHEM)
* Clc1ccc(-c2c(Cl)cccc2Cl)c(Cl)c1Cl [2,2',3,4,6'-Pentachlorobiphenyl]: log vapor pressure -4.445 (log10 mmHg) (via OCHEM)
* CC=C(C)Br [2-Butene, 2-bromo-]: log vapor pressure 1.755 (log10 mmHg) (via OCHEM)
* Clc1cccc(Cl)c1-c1c(Cl)c(Cl)c(Cl)c(Cl)c1Cl [2,2',3,4,5,6,6'-Heptachlorobiphenyl]: log vapor pressure -4.996 (log10 mmHg) (via OCHEM)
* CC(C)(O)c1ccccc1 [2-Phenylpropan-2-ol]: log vapor pressure -0.71 (log10 mmHg) (via eChemPortal)
* Clc1cc(Cl)cc(-c2c(Cl)cccc2Cl)c1: log vapor pressure -3.975 (log10 mmHg) (via OCHEM)
* O=C1c2cccc(Cl)c2C(=O)c2c(Cl)cccc21 [1,8-Dichloroanthraquinone]: log vapor pressure -6.78 (log10 mmHg) (via eChemPortal)
* CC(CCC(=O)[O-])C1CCC2C3C(O)CC4CC(O)CCC4(C)C3CC(O)C12C.[Na+] (configuration not stated) [Sodium cholate]: log vapor pressure -9.892 (log10 mmHg) (via eChemPortal)
* NC(=O)c1cccnc1 [Niacinamide]: log vapor pressure -5.472 (log10 mmHg) (via eChemPortal)
* COc1cc(Cc2cnc(N)nc2N)cc(OC)c1OC [Trimethoprim]: log vapor pressure -8.007 (log10 mmHg) (via OCHEM)
* CC(C)=NO [Acetoxime]: log vapor pressure 0.259 (log10 mmHg) (via PubChem, eChemPortal)
* Clc1ccccc1-c1c(Cl)ccc(Cl)c1Cl [PCB 045]: log vapor pressure -3.183 (log10 mmHg) (via OCHEM)
* O=C(O)c1ccncc1 [Isonicotinic acid]: log vapor pressure -7.629 (log10 mmHg) (via eChemPortal)
* Cc1ccc(CO)cc1 [4-Methylbenzyl alcohol]: log vapor pressure -2.05 (log10 mmHg) (via eChemPortal)
* CC(C)Nc1nc(N)nc(Cl)n1 [s-Chloroaminoisopropylaminotriazine]: log vapor pressure -4.03 (log10 mmHg) (via OCHEM)
* CC(C#N)c1cccc(C(=O)Cl)c1 (configuration not stated) [3-(1-Cyanoethyl)benzoyl chloride]: log vapor pressure -3.935 (log10 mmHg) (via eChemPortal)
* CC(=O)[C@H]1CC[C@H]2[C@@H]3CC=C4C[C@@H](O)CC[C@]4(C)[C@H]3CC[C@]12C [Pregnenolone]: log vapor pressure -9.565 (log10 mmHg) (via eChemPortal)
* CC(C)(C)N(CCO)CCO [tert-Butyldiethanolamine]: log vapor pressure -2.696 (log10 mmHg) (via eChemPortal)
* CC(C)CCC[C@@H](C)[C@H]1CC[C@H]2[C@@H]3CC=C4C[C@@H](O)CC[C@]4(C)[C@H]3CC[C@]12C [Cholesterol]: log vapor pressure -9.273 (log10 mmHg) (via eChemPortal)
* Cl.Cl.N[C@@H](CSSC[C@H](N)C(=O)O)C(=O)O [L-Cystine dihydrochloride]: log vapor pressure -11.54 (log10 mmHg) (via eChemPortal)
* O=Cc1ccccn1 [2-Pyridinecarboxaldehyde]: log vapor pressure -0.183 (log10 mmHg) (via eChemPortal)
* COc1ccc(C(=O)[O-])cc1.[Na+] [Sodium anisate]: log vapor pressure -5.523 (log10 mmHg) (via eChemPortal)
* CCCC1CCCC(=O)O1 (configuration not stated) [delta-Octanolactone]: log vapor pressure -1.821 (log10 mmHg) (via eChemPortal)
* C[Si](Cl)(Cl)CCl [Dichloro(chloromethyl)methylsilane]: log vapor pressure 1.051 (log10 mmHg) (via eChemPortal)
* CO[Si](C)(CCCCl)OC [(3-Chloropropyl)(dimethoxy)methylsilane]: log vapor pressure -0.224 (log10 mmHg) (via eChemPortal)
* COC(F)(F)C(C(F)(F)F)C(F)(F)F [1,1,1,3,3-Pentafluoro-3-methoxy-2-(trifluoromethyl)propane]: log vapor pressure 2.107 (log10 mmHg) (via ICF, eChemPortal)
* Cn1cc(C(=O)Nc2ccccc2-c2cc(F)c(F)c(F)c2)c(C(F)F)n1 [Fluxapyroxad]: log vapor pressure -10.69 (log10 mmHg) (via OCHEM)
* C[Si](C)(CCCN)N1CCC[Si]1(C)C: log vapor pressure -0.672 (log10 mmHg) (via eChemPortal)
* FC(F)(F)C(F)(F)C(F)(F)C(F)(F)C(F)(F)C(F)(F)C(F)(F)C(F)(F)C(F)(F)F [Perfluorononane]: log vapor pressure 0.985 (log10 mmHg) (via ICF)
* COCC(C)N (configuration not stated) [1-Methoxy-2-propylamine]: log vapor pressure 1.519 (log10 mmHg) (via eChemPortal)
* Clc1ccc(-c2c(Cl)cccc2Cl)c(Cl)c1: log vapor pressure -3.625 (log10 mmHg) (via OCHEM)

Repeated from above, the 6 entries with the highest log vapor pressure:

* CC=CCCC: log vapor pressure 2.176 (log10 mmHg) (via OCHEM)
* COC(F)(F)C(C(F)(F)F)C(F)(F)F [1,1,1,3,3-Pentafluoro-3-methoxy-2-(trifluoromethyl)propane]: log vapor pressure 2.107 (log10 mmHg) (via ICF, eChemPortal)
* CC=C(C)Br [2-Butene, 2-bromo-]: log vapor pressure 1.755 (log10 mmHg) (via OCHEM)
* COCC(C)N (configuration not stated) [1-Methoxy-2-propylamine]: log vapor pressure 1.519 (log10 mmHg) (via eChemPortal)
* C=C(C#N)C(=O)OCCOC [2-Propenoic acid, 2-cyano-, 2-methoxyethyl ester]: log vapor pressure 1.519 (log10 mmHg) (via eChemPortal)
* C[Si](C)(Cl)CCl [Silane, chloro(chloromethyl)dimethyl-]: log vapor pressure 1.509 (log10 mmHg) (via eChemPortal)

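The OPERA project collected these measurements from public sources as training and test data for property models. A listed value is a point estimate from one report or more. How each value was measured is not recorded, so precision varies. The measured form (salt, isomer or mixture) is not always the one drawn. Some entries may be limits or estimates that an upstream database listed as plain numbers.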